Assay results reported in patent US20260384443A1, “THIADIAZOLES AS GLUTAMINASE I INHIBITORS” (published 2026).

By UniProt entry, the sequences of proteins in these tests, tags left out. Residues count along the entry.
UniProt O94925, 55-669 limits assumed: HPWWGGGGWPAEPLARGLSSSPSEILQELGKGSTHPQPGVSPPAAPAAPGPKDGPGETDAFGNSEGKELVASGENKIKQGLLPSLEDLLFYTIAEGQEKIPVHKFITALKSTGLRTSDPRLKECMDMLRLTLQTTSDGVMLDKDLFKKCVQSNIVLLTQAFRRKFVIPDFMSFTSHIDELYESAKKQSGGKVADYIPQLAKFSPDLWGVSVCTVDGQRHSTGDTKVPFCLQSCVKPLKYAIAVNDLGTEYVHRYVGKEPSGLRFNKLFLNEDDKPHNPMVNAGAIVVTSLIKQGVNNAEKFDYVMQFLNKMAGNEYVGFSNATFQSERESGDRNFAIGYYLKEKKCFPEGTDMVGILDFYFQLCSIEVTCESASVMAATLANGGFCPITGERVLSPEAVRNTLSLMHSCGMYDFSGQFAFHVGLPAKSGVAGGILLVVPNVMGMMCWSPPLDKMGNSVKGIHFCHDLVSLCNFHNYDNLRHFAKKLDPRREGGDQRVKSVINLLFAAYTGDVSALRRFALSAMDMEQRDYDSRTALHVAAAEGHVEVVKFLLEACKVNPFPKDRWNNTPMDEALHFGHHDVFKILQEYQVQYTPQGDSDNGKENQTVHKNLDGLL
UniProt O94925, 73-669 limits assumed: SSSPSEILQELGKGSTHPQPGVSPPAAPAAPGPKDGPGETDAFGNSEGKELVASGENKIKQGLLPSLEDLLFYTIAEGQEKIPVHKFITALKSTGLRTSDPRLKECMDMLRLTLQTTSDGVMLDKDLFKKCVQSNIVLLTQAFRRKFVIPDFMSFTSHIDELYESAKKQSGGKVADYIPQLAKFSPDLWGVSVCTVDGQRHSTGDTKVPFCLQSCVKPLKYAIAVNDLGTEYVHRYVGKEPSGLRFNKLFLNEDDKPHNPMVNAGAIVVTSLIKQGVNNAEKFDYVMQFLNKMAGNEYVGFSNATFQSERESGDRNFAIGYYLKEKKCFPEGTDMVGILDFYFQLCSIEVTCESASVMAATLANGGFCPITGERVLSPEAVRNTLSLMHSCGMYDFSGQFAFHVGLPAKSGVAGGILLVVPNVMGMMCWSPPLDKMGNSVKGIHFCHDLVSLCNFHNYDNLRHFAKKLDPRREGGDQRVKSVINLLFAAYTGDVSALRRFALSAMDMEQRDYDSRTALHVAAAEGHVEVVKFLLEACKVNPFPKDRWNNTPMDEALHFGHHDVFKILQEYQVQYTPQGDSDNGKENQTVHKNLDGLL

Tests used:
GLS1 [1] = target: T1, GLS1 (Homo sapiens, UniProt O94925); assay: GLS1 cell assay: intracellular glutamate level in A549 cells (Glutamine/Glutamate-Glo); details: read-out: Cell IC50, 2 h compound pre-incubation, then 24 h with L-Gln
GLS1 [2] = target: T1, GLS1; assay: GLS1 enzymatic assay (three-stage coupled endpoint assay: GLS1/GDH/diaphorase, resorufin fluorescence); details: read-out: Enzyme IC50

| SMILES | IC50 (GLS1 [1]) | IC50 (GLS1 [2]) |
| --- | --- | --- |
| CC(C)(C1CCCCC1)N1CCO[C@H](CC(=O)Nc2nnc(N[C@@H]3CCN(c4cccnn4)C3)s2)C1 (single isomer, unassigned) [Example 152] | 3.8 nM | 17.1 nM |
| CC(C)Oc1ccccc1CCN1CCC[C@@H](CC(=O)Nc2nnc(N[C@@H]3CCN(c4cccnn4)C3)s2)C1 | 83 nM | 32.5 nM |
| O=C(C[C@H]1CC2(CO1)CN(Cc1cccc(OC(F)(F)F)c1)C2)Nc1nnc(N[C@@H]2CCN(c3cccnn3)C2)s1 (single isomer, unassigned) [Example 80] | 4.3 nM | 23 nM |
| CC(C)N1CCN(Cc2cccc(OC(F)F)c2)[C@H](CC(=O)Nc2nnc(N[C@@H]3CCN(c4cccnn4)C3)s2)C1 (single isomer, unassigned) [Example 250] | 74.8 nM | 93.9 nM |
| CC1(C)CCC(CN2CCSC(CC(=O)Nc3nnc(N[C@@H]4CCN(c5cccnn5)C4)s3)C2)CC1 (stereo partly drawn) | 2.1 nM | 32.1 nM |
| CC1(C)CC(N2CCN(CC(=O)Nc3nnc(N[C@@H]4CCN(c5cccnn5)C4)s3)CC2)CC(C)(C)C1 | 12.6 nM | 53.8 nM |
| C[C@@H](C(=O)Nc1nnc(N[C@@H]2CCN(c3cccnn3)C2)s1)C1CCN(Cc2ccc(OC(F)(F)F)cc2)CC1 (single isomer, unassigned) [Example 23] | 7.9 nM | 145 nM |
| O=C(CC1CC2(C1)CN(Cc1cccc(OC(F)(F)F)c1)C2)Nc1nnc(N[C@@H]2CCN(c3cccnn3)C2)s1 | 7.2 nM | 22.9 nM |
| Cc1ccccc1CN1CCC([C@H](C(=O)Nc2nnc(N[C@@H]3CCN(c4cccnn4)C3)s2)C(C)C)CC1 (single isomer, unassigned) [Example 224] | 90.1 nM | 120 nM |
| CC1(C)CCC(CN2CCC[C@@H](CC(=O)Nc3nnc(N[C@@H]4CCN(c5cccnn5)C4)s3)C2)CC1 | 31.1 nM | 86.5 nM |
| O=C(CC1CCN(Cc2ccc(OC(F)F)cc2)CC1)Nc1nnc(N[C@@H]2CCN(c3cccnn3)C2)s1 | 27.2 nM | 39.5 nM |
| CC(C)Oc1ccccc1CN1CCC(CC(=O)Nc2nnc(N[C@@H]3CCN(c4cccnn4)C3)s2)CC1 | 81.6 nM | 55.6 nM |
| O=C(C[C@@H]1COCCN1C1CCCCC1)Nc1nnc(N[C@@H]2CCN(c3cccnn3)C2)s1 (single isomer, unassigned) [Example 228] | 27.7 nM | 37.1 nM |
| CC(C)Sc1ccccc1CN1CCC(CC(=O)Nc2nnc(N[C@@H]3CCN(c4cccnn4)C3)s2)CC1 | 6.2 nM | 49.6 nM |
| O=C(CC1CCN(Cc2cncc(C(F)(F)F)c2)CC1)Nc1nnc(N[C@@H]2CCN(c3cccnn3)C2)s1 | 11.8 nM | 28.8 nM |
| CC(C)Oc1cccnc1CN1CCC(CC(=O)Nc2nnc(N[C@@H]3CCN(c4cccnn4)C3)s2)CC1 | 269 nM | 37.8 nM |
| O=C(Nc1nnc(N[C@@H]2CCN(c3cccnn3)C2)s1)[C@H]1CCCN(Cc2cccc(OC(F)(F)F)c2)C1 | 11.7 nM | 62.7 nM |
| O=C(C[C@H]1CN(C2CC3(CCCCC3)C2)CCO1)Nc1nnc(N[C@@H]2CCN(c3cccnn3)C2)s1 (single isomer, unassigned) [Example 256] | 1 nM | 21.7 nM |
| COc1c(C)cc(CN2CCC(CC(=O)Nc3nnc(N[C@@H]4CCN(c5cccnn5)C4)s3)CC2)cc1C | 70.2 nM | 55 nM |

| SMILES | IC50 (GLS1 [1]) | IC50 (GLS1 [2]) |
| --- | --- | --- |
| CN(CC1CCC(C)(C)CC1)C1(CC(=O)Nc2nnc(N[C@@H]3CCN(c4cccnn4)C3)s2)CC1 | 2 nM | 82.7 nM |
| O=C(C[C@H]1C[C@@]2(CCN(Cc3cccc(OC(F)(F)F)c3)C2)C1)Nc1nnc(N[C@@H]2CCN(c3cccnn3)C2)s1 (single isomer, unassigned) [Example 189] | 4.1 nM | 161 nM |
| CC(C)(C)c1cc(CN2CCC(SCC(=O)Nc3nnc(N[C@@H]4CCN(c5cccnn5)C4)s3)CC2)on1 | 2.8 nM | 12.7 nM |
| Cc1ccc([C@H](C)N2CCC[C@@H](CC(=O)Nc3nnc(N[C@@H]4CCN(c5cccnn5)C4)s3)C2)c(F)c1 (single isomer, unassigned) [Example 263] | 11.1 nM | 29.7 nM |
| O=C(CC1CCC2(CC1)CCN(Cc1cc(Br)ccn1)CC2)Nc1nnc(N[C@@H]2CCN(c3cccnn3)C2)s1 | 7.4 nM | 16.2 nM |
| O=C(CC1CN(C2CCC3(CC2)CC3)CCO1)Nc1nnc(N[C@@H]2CCN(c3cccnn3)C2)s1 (stereo partly drawn) | 10 nM | 23 nM |
| CC1(C)CCC(N2CCN(CC(=O)Nc3nnc(N[C@@H]4CCN(c5cccnn5)C4)s3)CC2)CC1 | 22.5 nM | 69.1 nM |
| Cc1cc(F)cc(CN2CCC[C@@H](CC(=O)Nc3nnc(N[C@@H]4CCN(c5cccnn5)C4)s3)C2)c1 | 5.5 nM | 19.8 nM |
| Cc1ccccc1CN1CCC(C(C(=O)Nc2nnc(N[C@@H]3CCN(c4cccnn4)C3)s2)C2CCC2)CC1 (stereo partly drawn) | 35.9 nM | 119 nM |
| CC(C)Oc1ccccc1CN1CCC(CCC(=O)Nc2nnc(N[C@@H]3CCN(c4cccnn4)C3)s2)CC1 | 34.6 nM | 28.1 nM |
| Cc1cc(C)cc(CN2CCC(CC(=O)Nc3nnc(N[C@@H]4CCN(c5cccnn5)C4)s3)CC2)c1 | 24.1 nM | 52.3 nM |
| CCc1onc(C)c1CN1CCC2(CCC(CC(=O)Nc3nnc(N[C@@H]4CCN(c5cccnn5)C4)s3)CC2)CC1 | 15 nM | 17.4 nM |
| Cc1ccc([C@H](C)N2CCC[C@@H](CC(=O)Nc3nnc(N[C@@H]4CCN(c5cccnn5)C4)s3)C2)cc1F (single isomer, unassigned) [Example 261] | 6.3 nM | 18.8 nM |
| CC(C)Oc1cccnc1CN1CCC(CC(=O)Nc2nnc(N[C@@H]3CCN(c4cccnn4)C3)s2)CC12CC2 (stereo partly drawn) | 76.2 nM | 45 nM |
| O=C(CSC1CCN(Cc2ccccc2OC2CCC2)CC1)Nc1nnc(N[C@@H]2CCN(c3cccnn3)C2)s1 | 1.7 nM | 22.2 nM |
| O=C(C[C@H]1CCCN(Cc2ccc(OC(F)(F)F)cc2)C1)Nc1nnc(N[C@@H]2CCN(c3cccnn3)C2)s1 | 12.5 nM | 28.8 nM |
| Cc1ccccc1CN1CCC(C(C(=O)Nc2nnc(N[C@@H]3CCN(c4cccnn4)C3)s2)C(C)C)CC1 (stereo partly drawn) | 32.1 nM | 78.2 nM |
| O=C(CCC1CCN(Cc2cccc(OC(F)F)c2)CC1)Nc1nnc(N[C@@H]2CCN(c3cccnn3)C2)s1 | 15.5 nM | 27.8 nM |
| CC1(C)CCC(CN2CC3(CO[C@@H](CC(=O)Nc4nnc(N[C@@H]5CCN(c6cccnn6)C5)s4)C3)C2)CC1 (single isomer, unassigned) [Example 97] | 81 nM | 41.2 nM |

| SMILES | IC50 (GLS1 [1]) | IC50 (GLS1 [2]) |
| --- | --- | --- |
| CC(C)Sc1ccccc1CN1CCCC(OCC(=O)Nc2nnc(N[C@@H]3CCN(c4cccnn4)C3)s2)C1 (stereo partly drawn) | 4.2 nM | 106 nM |
| O=C(CN1CCN(Cc2ccc(OC(F)(F)F)cc2)CC1)Nc1nnc(N[C@@H]2CCN(c3cccnn3)C2)s1 | 1.6 nM | 52.7 nM |
| Cc1ccccc1CN1CCC([C@@H](CC2CC2)C(=O)Nc2nnc(N[C@@H]3CCN(c4cccnn4)C3)s2)CC1 (single isomer, unassigned) [Example 221] | 155 nM | 296 nM |
| CC(C)OC(=O)c1cccc(CN2CCC(CC(=O)Nc3nnc(N[C@@H]4CCN(c5cccnn5)C4)s3)CC2)c1 | 7.2 nM | 28.2 nM |
| Cc1cc(C)cc(CN2CCC[C@@H](CC(=O)Nc3nnc(N[C@@H]4CCN(c5cccnn5)C4)s3)C2)c1 | 18.1 nM | 37.5 nM |
| CN1CCN(C2CCC(C)(C)CC2)CC1CC(=O)Nc1nnc(N[C@@H]2CCN(c3cccnn3)C2)s1 (stereo partly drawn) | 84.2 nM | 74 nM |
| CC1(C)CCC(CN2CC3(CO[C@@H](CC(=O)Nc4nnc(N[C@@H]5CCN(c6cccnn6)C5)s4)C3)C2)CC1 (single isomer, unassigned) [Example 98] | 51.7 nM | 39.3 nM |
| Cc1cc(CN2CCC[C@@H](CC(=O)Nc3nnc(N[C@@H]4CCN(c5cccnn5)C4)s3)C2)cc(F)c1C | 8 nM | 20.3 nM |
| O=C(C[C@H]1CN(C2CC3(CCCC3)C2)CCO1)Nc1nnc(N[C@@H]2CCN(c3cccnn3)C2)s1 (single isomer, unassigned) [Example 266] | 7.2 nM | 20.4 nM |
| CC(C)Oc1ccccc1CN1CCC[C@@H](SCC(=O)Nc2nnc(N[C@@H]3CCN(c4cccnn4)C3)s2)C1 (single isomer, unassigned) [Example 100] | 2.6 nM | 31.6 nM |
| CSc1ccccc1CN1CC2(CCCN(CC(=O)Nc3nnc(N[C@@H]4CCN(c5cccnn5)C4)s3)C2)C1 | 3 nM | 17 nM |
| O=C(CC1CCC2(CC1)CCN(Cc1ccc(Cl)cn1)CC2)Nc1nnc(N[C@@H]2CCN(c3cccnn3)C2)s1 | 14.3 nM | 19.6 nM |
| O=C(CC1CC2(CCN(Cc3cccc(OC(F)(F)F)c3)C2)C1)Nc1nnc(N[C@@H]2CCN(c3cccnn3)C2)s1 (stereo partly drawn) | 5.9 nM | 134 nM |
| CC1(C)CCC(CN2CCO[C@H](CC(=O)Nc3nnc(N[C@@H]4CCN(c5cccnn5)C4)s3)C2)CC1 (single isomer, unassigned) [Example 72] | 3.4 nM | 37.2 nM |
| O=C(C[C@@H]1CCCN(Cc2cccc(OC(F)F)c2)C1)Nc1nnc(N[C@@H]2CCN(c3cccnn3)C2)s1 | 7.4 nM | 62.5 nM |
| CC1(C)CCC(CN2CCC(CC(=O)Nc3nnc(N[C@@H]4CCN(c5cccnn5)C4)s3)CC2)CC1 | 34.5 nM | 68.2 nM |
| O=C(C[C@H]1CN(C2CCC3(CC2)CC3)CCO1)Nc1nnc(N[C@@H]2CCN(c3cccnn3)C2)s1 (single isomer, unassigned) [Example 253] | 21.3 nM | 25.9 nM |
| O=C(C[C@H]1C[C@@]2(CCN(Cc3cccc(OC(F)(F)F)c3)C2)C1)Nc1nnc(N[C@@H]2CCN(c3cccnn3)C2)s1 (single isomer, unassigned) [Example 188] | 4.8 nM | 62.9 nM |
| CC(C)Sc1ccccc1CN1CCC(O)(CC(=O)Nc2nnc(N[C@@H]3CCN(c4cccnn4)C3)s2)CC1 | 31.5 nM | 40.7 nM |
